Data reported in PubChem BioAssay AID903 (National Center for Advancing Translational Sciences (NCATS), 2007).
This is a selection; strong and weak results do not stand in their true shares. Results filed as inconclusive are left out. The source made the active and inactive calls. Calls come from the whole dose curve; as a rule, active = well fitted cell-killing curve with a large enough effect; inconclusive = small, poorly fitted or top-dose-only effect; inactive = no such curve, though single readings can be large or run the other way.

Assay: qHTS Screen for Compounds that Selectively Target Cancer Cells with p53 Mutations: Cytotoxicity of p53 Null Cells at the Permissive Temperature;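 note: 0% = DMSO only and -100% = full killing by 100 µM tamoxifen; nearly all actives have a fitted effect of over 55% in size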
Conditions: H1299-neo p53 null cells, ATP luminescence, 24 h, 32C; at 46.1 µM (top of the series)
From the text: NIH Chemical Genomics Center [NCGC] NIH Molecular Libraries Screening Centers Network [MLSCN] MLSCN Grant: 1 X01 MH079844-01 Assay Submitter (PI): Dr. SUN, YI, University of Michigan NCGC Assay Overview: Synthetic Lethal Screen for Compounds to Kill Cancer Cells with p53 Mutation. Tumor suppressor gene p53 serves as a major cellular barrier against tumorigenesis. […] The goal of this screening is to identify small molecule probes that selectively kill cancer cells with mutations in p53. This screening was carried out using two lines of H1299 lung cancer cells. The H1299-p53 A138V line express a temperature sensitive p53 mutant (p53ts) in which the mutant p53 protein (A138V) is in the mutant confirmation when grown at 39C (the nonpermissive temperature) and in the wild type conformation when grown at 32C (the permissive temperature). A H1299-neo line (p53 null) grown at both 39C and 32C were used as counter-screens to filter out false positive associated with temperature shifting. The small molecular compounds that selectively target mutant p53-containing cancer cells were selected as candidate probes for further study. A cytotoxicity assay based on the measurement of ATP contents in cells was used in this screen. Concentration-responses of all the compounds in the library collection were determined in qHTS using the cell lines and temperature conditions as above.
NCGC Assay Protocol Summary: Both the H1299-p53A138V and H1299-neo cell lines were provided by Dr.Yi Sun, a PI at the University Michigan. The cells were maintained and cultured at 37C. The resuspended frozen cells were used to plate the cells in the 1536-well assay plates at a density of 600 cells per well in 5 ul medium. The assay plates with the cells were incubated at 37C for 16 to 30 hours before the experiments. The library compounds in DMSO solution were added to the cells in assay plates and incubated 24 hours at 39C (for mutant p53 conformation) or 32C (for normal p53 conformation as control). An ATP_lite assay kit (PerkinElmer) was used to determine the cell viability. Tomaxifen (100uM) was used as the positive control for cell killing. Data were normalized to the controls for basal activity (DMSO only) and 100% killing (100uM tamoxifen). AC50 values were determined from concentration-response data modeled with the standard Hill equation. P53 assay protocol: 1. Reagent; 5 uL H1299-p53A138V or H1299-neo cell cells/well 2. Time; overnight; 37C incubation 3. Compounds; 23 nL; 5.9 nM to 46 uM 4. Controls; 23 nL; Tamoxifen 100 uM 5. Time; 24 hr; 32C incubation 6. Reagent; 3 uL; ATP_Lite reagent 7. Time; 20 min; Room Temperature 8. Detection; Luminescence; Viewlux plate reader Keywords: p53, synthetic lethal, cancer, cell viability, cytotoxicity, H1299 cell line, luminescence, MLSMR, MLSCN, NIH Roadmap, qHTS, NCGC

SMILES | activity change, negative = cytotoxicity
CCC(C)N(CC(C)C)C(=S)SC(NC(C)=O)C(Cl)(Cl)Cl (configuration not stated) | inactive: 2.18%
Cc1cc(SC(NC(=O)c2ccccc2)C(Cl)(Cl)Cl)nc(C(C)C)n1 (configuration not stated) | inactive: -6.64%
ClCCSc1nnc(-c2cccnc2)o1 | inactive: -11.2%
Cc1c2c(nc3ccccc13)SC(C(Cl)Cl)C2 (configuration not stated) | inactive: -0.308%
CC(C)C(=O)NC(Sc1ccccc1)C(Cl)(Cl)Cl (configuration not stated) | inactive: -22.5%
CN1CCCC(OC(=O)C(c2ccccc2)c2ccccc2)C1 (configuration not stated) | inactive: -9.91%
Cc1cc(SC(NC(=O)c2ccc(F)cc2)C(Cl)(Cl)Cl)ncn1 (configuration not stated) | inactive: 6%
